We go through one molecule from PMC10556141, “Yeast Rad52 is a homodecamer and possesses BRCA2-like bipartite Rad51 binding modes” (Nature Communications, 2023).

This experiment has as its target T1, Saccharomyces cerevisiae Rad52 (full-length) (S. cerevisiae).
T1 construct: Rad52, S. cerevisiae, full length; predicted mass of one subunit 52.4 kDa; constructs reach residue 471; Homodecamer by AUC, mass photometry and cryo-EM; The CBD was removed by elution from chitin resin with 50 mM DTT (pTXB1 plasmid); also called yeast Rad52; source: E. coli Rosetta-2 PlysS, purified (chitin resin, heparin, Q-Sepharose, Superdex-200 SEC); copies: 10
The experiment is described as follows: AUC; sedimentation velocity, 40,000 rpm, 20 °C; 30 mM HEPES pH 7.8, 100 mM KCl, 10% glycerol, 1 mM TCEP; absorbance at 280 nm; c(s) model in SEDFIT; no ssDNA. The following applies: both partners purified.

B1: S. cerevisiae Replication Protein A (RPA) (complex)
chain 1: MSSVQLSRGDFHSIFTNKQRYDNPTGGVYQVYNTRKSDGANSNRKNLIMISDGIYHMKALLRNQAASKFQSMELQRGDIIRVIIAEPAIVRERKKYVLLVDDFELVQSRADMVNQTSTFLDNYFSEHPNETLKDEDITDSGNVANQTNASNAGVPDMLHSNSNLNANERKFANENPNSQKTRPIFAIEQLSPYQNVWTIKARVSYKGEIKTWHNQRGDGKLFNVNFLDTSGEIRATAFNDFATKFNEILQEGKVYYVSKAKLQPAKPQFTNLTHPYELNLDRDTVIEECFDESNVPKTHFNFIKLDAIQNQEVNSNVDVLGIIQTINPHFELTSRAGKKFDRRDITIVDDSGFSISVGLWNQQALDFNLPEGSVAAIKGVRVTDFGGKSLSMGFSSTLIPNPEIPEAYALKGWYDSKGRNANFITLKQEPGMGGQSAASLTKFIAQRITIARAQAENLGRSEKGDFFSVKAAISFLKVDNFAYPACSNENCNKKVLEQPDGTWRCEKCDTNNARPNWRYILTISIIDETNQLWLTLFDDQAKQLLGVDANTLMSLKEEDPNEFTKITQSIQMNEYDFRIRAREDTYNDQSRIRYTVANLHSLNYRAEADYLADELSKALLA
chain 2: MATYQPYNEYSSVTGGGFENSESRPGSGESETNTRVNTLTPVTIKQILESKQDIQDGPFVSHNQELHHVCFVGVVRNITDHTANIFLTIEDGTGQIEVRKWSEDANDLAAGNDDSSGKGYGSQVAQQFEIGGYVKVFGALKEFGGKKNIQYAVIKPIDSFNEVLTHHLEVIKCHSIASGMMKQPLESASNNNGQSLFVKDDNDTSSGSSPLQRILEFCKKQCEGKDANSFAVPIPLISQSLNLDETTVRNCCTTLTDQGFIYPTFDDNNFFAL
chain 3: MASETPRVDPTEISNVNAPVFRIIAQIKSQPTESQLILQSPTISSKNGSEVEMITLNNIRVSMNKTFEIDSWYEFVCRNNDDGELGFLILDAVLCKFKENEDLSLNGVVALQRLCKKYPEIY
notes: largest RPA subunit (RPA70), S. cerevisiae; RPA32 subunit, S. cerevisiae; smallest RPA subunit (RPA14), S. cerevisiae; Heterotrimer expressed from one plasmid; source: E. coli BL21(DE3) Rossetta PlysS (p11d-tscRPA, all three subunits), purified (Ni-NTA, Q-sepharose, heparin); copies: + +
Take B1: the binding result is on record as “binds”.
